Results from article PMC9434700 (Journal of medicinal chemistry, 2022).

System: other mGluRs (mGluR1, mGluR4, mGluR5, mGluR6, mGluR8)
Details: read-out: other mGluRs EC5, see the Supporting Information

How did the EC50 turn out when `O=C(c1cnc2c(cnn2CC2CC2)c1C(F)(F)F)N1CCN(c2ccc(F)cc2F)CC1` [Compound 13, (1-(Cyclopropylmethyl)-4-(trifluoromethyl)-1H-pyrazolo[3,4-b]-pyridin-5-yl) (4-(2,4-difluorophenyl)piperazin-1-yl)methanone] was run?
The EC50 was over 1 µM.
